Data as given in EP0076669A1, “Novel 3-phenyl-1-indanamines, pharmaceutical compositions and methods of preparation” (KEFALAS A/S, priority 1981, dated 1983).

Protein sequences, listed by entry. Tags and fused reporters are not part of them. Residues count along the entry.
UniProt P23977, whole entry: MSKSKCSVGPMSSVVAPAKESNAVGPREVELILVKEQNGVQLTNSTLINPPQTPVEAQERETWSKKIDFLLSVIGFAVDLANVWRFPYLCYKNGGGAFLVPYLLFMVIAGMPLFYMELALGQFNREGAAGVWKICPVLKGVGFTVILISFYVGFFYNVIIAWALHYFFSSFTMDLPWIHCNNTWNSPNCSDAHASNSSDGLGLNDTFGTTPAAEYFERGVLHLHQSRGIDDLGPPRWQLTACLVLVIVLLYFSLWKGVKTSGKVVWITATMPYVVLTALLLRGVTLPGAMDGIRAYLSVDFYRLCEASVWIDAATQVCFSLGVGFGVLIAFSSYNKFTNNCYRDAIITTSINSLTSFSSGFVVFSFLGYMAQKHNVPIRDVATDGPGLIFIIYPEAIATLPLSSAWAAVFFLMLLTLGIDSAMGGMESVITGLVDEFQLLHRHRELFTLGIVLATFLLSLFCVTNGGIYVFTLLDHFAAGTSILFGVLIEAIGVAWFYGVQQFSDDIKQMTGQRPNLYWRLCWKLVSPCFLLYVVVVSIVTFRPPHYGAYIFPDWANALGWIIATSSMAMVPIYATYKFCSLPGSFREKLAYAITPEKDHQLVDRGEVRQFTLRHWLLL
UniProt P31652, whole entry: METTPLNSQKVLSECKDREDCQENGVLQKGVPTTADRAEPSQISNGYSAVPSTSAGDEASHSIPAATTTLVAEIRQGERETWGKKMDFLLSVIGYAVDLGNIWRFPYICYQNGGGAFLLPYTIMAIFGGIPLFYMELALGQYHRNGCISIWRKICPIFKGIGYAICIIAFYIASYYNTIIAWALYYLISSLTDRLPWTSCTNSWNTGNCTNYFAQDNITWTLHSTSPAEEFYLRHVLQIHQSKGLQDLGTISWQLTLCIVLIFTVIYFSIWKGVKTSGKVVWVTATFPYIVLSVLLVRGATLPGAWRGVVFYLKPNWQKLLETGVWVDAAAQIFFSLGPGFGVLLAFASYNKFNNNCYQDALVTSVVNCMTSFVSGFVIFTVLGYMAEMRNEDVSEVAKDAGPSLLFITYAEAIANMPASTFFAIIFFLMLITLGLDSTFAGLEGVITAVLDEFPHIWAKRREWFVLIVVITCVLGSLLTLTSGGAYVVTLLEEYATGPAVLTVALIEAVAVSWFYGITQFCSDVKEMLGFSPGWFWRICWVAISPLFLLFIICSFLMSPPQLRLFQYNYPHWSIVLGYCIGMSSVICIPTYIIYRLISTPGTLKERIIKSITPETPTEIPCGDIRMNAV
UniProt Q63380, 1-617: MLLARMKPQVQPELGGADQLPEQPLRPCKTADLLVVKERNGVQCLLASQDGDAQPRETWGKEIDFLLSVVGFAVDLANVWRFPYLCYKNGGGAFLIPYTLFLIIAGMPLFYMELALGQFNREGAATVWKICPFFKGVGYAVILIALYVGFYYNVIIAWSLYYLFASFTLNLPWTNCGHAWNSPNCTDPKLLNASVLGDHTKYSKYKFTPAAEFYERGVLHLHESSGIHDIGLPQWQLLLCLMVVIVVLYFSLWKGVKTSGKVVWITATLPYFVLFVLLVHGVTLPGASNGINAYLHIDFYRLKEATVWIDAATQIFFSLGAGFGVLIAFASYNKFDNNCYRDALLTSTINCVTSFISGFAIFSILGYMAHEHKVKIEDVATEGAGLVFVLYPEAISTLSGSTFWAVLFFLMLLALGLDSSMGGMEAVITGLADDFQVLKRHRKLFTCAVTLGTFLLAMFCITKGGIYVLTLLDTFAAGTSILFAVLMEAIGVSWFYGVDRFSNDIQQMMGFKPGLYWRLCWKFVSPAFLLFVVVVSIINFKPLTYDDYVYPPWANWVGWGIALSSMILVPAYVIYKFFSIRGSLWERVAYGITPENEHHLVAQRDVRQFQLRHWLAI

Experiments:
[1] = system: tetrabenazine induced ptosis; assay: Tetrabenazine ptosis antagonism; format: in vivo; details: i.p., mice, tetrabenazine 40 mg/kg i.p. 30 min after test substance
Experimental: For insoluble substances the doses 0, 1/8, 1/32 and 1/128 of "i.^p. LD50" are used. 3 mice are used for each dose level. Thirty minutes after administration of test substance, tetrabenazine, 40 mg/kg, is injected i.p. Ptosis is evaluated 30 minutes after administration of tetrabenazine, the following rating scale being used: 0 = normal eyes, 1=1/4 closed eyes, 2 = 1/2 closed eyes, 3 = 3/4 closed eyes and 4 = completely closed eyes. Ptosis is evaluated 30 seconds after tilting the cage 3 times. The tilting is carried out in such a way that the animals slide along the floor of the cage.
The results are recorded as % inhibition of ptotic score calculated on the basis of the score of the control group. If ptotic score for the control group is < 10 the test is rejected and another is performed. The registration can also be done as an on line procedure.

[2] = target: ^3H-DA uptake in striatal synaptosomes (Rattus norvegicus, UniProt P23977)
[3] = target: ^3H-5-HT uptake in synaptosomes (Rattus norvegicus, UniProt P31652); assay: Inhibition of 3H-5-HT uptake in synaptosomes in vitro; format: biochemical, Rats; details: read-out: Uptake Inhibition IC50 5-HT; rat brain synaptosomes, 3H-5-HT 10 nM; tested form: HCl
[4] = target: ^3H-1-NA uptake in synaptosomes (Rattus norvegicus, UniProt Q63380); assay: Inhibition of 3H-1-NA uptake in synaptosomes in vitro; format: biochemical, Rats; details: read-out: Uptake Inhibition IC50 NA; rat occipital cortex synaptosomes, 3H-1-NA 10 nM; tested form: HCl
[5] = read-out: Uptake Inhibition IC50 DA, 3H-DA 12.5 nM, tested form: HCl

## CCN(CC)[C@H]1C[C@@H](c2ccc(F)cc2)c2ccc(C)cc21 (relative stereo)
[1]; tested form: HCl hydrate
  Tetrabenazine ptosis, ED50: >114 /u mol/kg
[2]; read-out: Uptake Inhibition IC50 DA, 3H-DA 12.5 nM, tested form: HCl hydrate
  IC50: 470 nM

## CCCN(CCC)[C@H]1C[C@@H](c2ccc(F)cc2)c2ccc(F)cc21 (relative stereo)
[1]; tested form: HCl
  Tetrabenazine ptosis, ED50: >109 /u mol/kg
[3]
  IC50: 6700 nM
[2]; [5]
  IC50: 840 nM

## CCCN(CCC)[C@H]1C[C@H](c2ccc(F)cc2)c2ccc(F)cc21 (relative stereo)
[1]; tested form: HCl
  Tetrabenazine ptosis, ED50: >109 /u mol/kg
[3]
  IC50: 5400 nM
[4]
  IC50: 860 nM
[2]; [5]
  IC50: 300 nM

Where two headings read alike, the source gives them in different places.
